t1/2 data for 1 molecule are collected here from publication PMC7984436 (Clinical Pharmacology in Drug Development, 2020).

The format of this data set is in vivo, human. The settings on record: Study period 1, day 1: bupropion 150 mg alone, mean ± SD.

Molecule `CC(NC(C)(C)C)C(=O)c1cccc(Cl)c1` (stereo not shown) [Bupropion, bupropion] registered a t1/2 of 26.0 ± 7.3 h.
